Test results reported in patent US7368439B2, “Dinucleoside poly(borano)phosphate derivatives and uses thereof” (BAR - ILAN University, priority 2005, dated 2008).
Like-named read-outs stand apart in the source and are kept apart here.

Settings: pH 7.4/37° C., Tris/HCl buffer, 4 weeks (one month), sodium salts

Substance	decomposition	decomposition (listed as Up3(β-B)U)
diadenosine tri(borano)phosphate [compound 1]	no decomposition even after one month	
diuridine tri(borano)phosphate [compound 2]	no decomposition at all	no decomposition even after one month
